Biological target: GST-AP-2αA appendage domain
Test: pull-down; recombinant purified GST-AP-2αA/C appendage domains (10 μg) with His6-LC3b (5 μg); 150 mM NaCl, 10 mM HEPES pH 7.5, 5 mM imidazole, 2 mM DTT, 0.005% Triton X-100; 1 h at 4 °C; immunoblotting for LC3b

purified recombinant LC3b-His6 (from UniProt Q9GZQ8 1-120) (natural protein)
fold preference over GST-AP-2αC: 3 fold

From article PMC5385568
